{"source": "patent US5554631A", "about": "“5-pyrrolyl-6-halogeno-2-pyridylmethylsulfinyl benzimidazole derivatives” (Il-Yang Pharm. Co., Ltd., priority 1994, dated 1996)", "test_system": "ICR (male, female) mouse", "conditions": "oral, 987 mg/kg, 14 days", "method": "Five weeks aged ICR (male, female) mouse were pre-bred in the breeding cage for one week and then the animals showing a smooth gain in body weight were randomly selected and used in this test. The amount to be administered to the test animals was established on the basis of the maximum dose of 5,000 mg/kg with the common ratio of 1.5.\nThe test compounds in a powder were suspended in 0.5% methylcellulose and administered per oral using a lml syringe. The other specific conditions for administration are described in the following.\nIn the above test, the control group received only 0.5% methylcellulose.\n(1) Clinical symptoms and death of test animals\nThe clinical symptoms and death of test animals caused by the test compounds were recorded immediately after administration of the test compounds and during the overall test period.", "data": [{"smiles": "COc1ccc2[nH]c([S+]([O-])Cc3ncc(C)c(OC)c3C)nc2c1", "note": "(stereo not shown) [Omeprazole, 5-methoxy-2-[[(4-methoxy-3,5-dimethyl-2-pyridinyl)methyl]sulfinyl]-1H-benzimidazole]", "values": [{"measurement": "Lethality", "value": "0/5"}]}]}
